The results in this text go back to patent US11058903B2, “Methods for identifying and treating cachexia or pre-cachexia using an inhibitor of rage” (THE BROAD INSTITUTE, INC., priority 2013, dated 2021).

In one assay the test system is pancreatic cancer cells. The assay is described as follows: CellTiter Glo cell number assay, chemotherapy with or without soluble RAGE. It counts as cell-based. Particulars: treated for 5 days; Gemcitibine alone or with increasing doses of recombinant human soluble RAGE. The source says:
Anti-RAGE treatment increases sensitivity to chemotherapy in cancer cells.

In the next assay the test system is HSkM cells. The assay is described as follows: In-Cell Western of myosin heavy chain (MyoHC) content in muscle cells exposed to CI-CM. The note with it: muscle cells with or without CI-CM, FIGS. 23, 24. It counts as cell-based, human. The source says: FIG. 21 is a chart showing the quantification of myosin heavy chain (MyoHC) content determined by In-Cell Western analysis of in vitro HSkM cells treated with media conditioned by cachexia-inducing MkN1 and G361 cells and in vitro HSkM cells treated with media conditioned by non-cachexia-inducing 293 cells, either in the presence or absence of a MEK/ERK inhibitor PD184352 (PD184).
FIG. 22 is a chart showing the myosin heavy chain (MyoHC) content determined by In-Cell Western analysis of in vitro HSkM cells pre-treated (for 2 days) or not pre-treated with cachexia-inducing conditioned media (“CI-CM”), either in the presence or absence of an ERK1/2 inhibitor, SCH772984 (SCH2984).
FIGS. 23A and 23B are a series of charts showing the dose response of myosin heavy chain (MyoHC) content determined by In-Cell Western analysis of muscle cells treated with a RAGE Anti-Peptide (FIG. 23A) or an anti-RAGE mAb (FIG. 23B), either in the absence or presence of cachexia-inducing conditioned media (CI-CM).
FIG. 24 is a chart showing the dose response of myosin heavy chain (MyoHC) content determined by In-Cell Western analysis of muscle cells treated with a recombinant soluble RAGE, either in the presence of cachexia-inducing conditioned media (CI-CM) or non-cachexia-inducing conditioned media (NCI-CM). […]

Turning to “rsRAGE: recombinant soluble RAGE that competes with membrane-bound RAGE for binding RAGE ligands”, the “pancreatic cancer cell numbers (CellTiter Glo)” value in the assay on pancreatic cancer cells was “reduction”. Also, in the assay with HSkM cells, the “loss of MyoHC in response to CI-CM under RAGE blockade” value is “inhibit”.
